Molecular target: purified αllbβ3 receptor (Homo sapiens, UniProt P05106+P08514)
Assay: similar competitive binding assay with 125I-echistatin on αllbβ3 receptor, used for the specificity index
Conditions: Table 10; specificity index IC50 αllbβ3/ IC50 αvβ3
Experimental: To measure the relative affinity of the test compounds for αvβ3 receptors versus affinity for αllbβ3 receptors, similar competitive assays were carried out using purified αllbβ3 receptor and ^125I-echistatin (iodinated using the lactoperoxidase method). The specificity index, which is a measure of the relative binding affinity for αvβ3, versus αllbβ3, may be determined by dividing the IC50 value for αllbβ3 by the IC50 value for αvβ3.

The chains behind the UniProt entries cited, without tags or fusion partners. Residues count along the entry.
UniProt P05106, 27-788 limits assumed: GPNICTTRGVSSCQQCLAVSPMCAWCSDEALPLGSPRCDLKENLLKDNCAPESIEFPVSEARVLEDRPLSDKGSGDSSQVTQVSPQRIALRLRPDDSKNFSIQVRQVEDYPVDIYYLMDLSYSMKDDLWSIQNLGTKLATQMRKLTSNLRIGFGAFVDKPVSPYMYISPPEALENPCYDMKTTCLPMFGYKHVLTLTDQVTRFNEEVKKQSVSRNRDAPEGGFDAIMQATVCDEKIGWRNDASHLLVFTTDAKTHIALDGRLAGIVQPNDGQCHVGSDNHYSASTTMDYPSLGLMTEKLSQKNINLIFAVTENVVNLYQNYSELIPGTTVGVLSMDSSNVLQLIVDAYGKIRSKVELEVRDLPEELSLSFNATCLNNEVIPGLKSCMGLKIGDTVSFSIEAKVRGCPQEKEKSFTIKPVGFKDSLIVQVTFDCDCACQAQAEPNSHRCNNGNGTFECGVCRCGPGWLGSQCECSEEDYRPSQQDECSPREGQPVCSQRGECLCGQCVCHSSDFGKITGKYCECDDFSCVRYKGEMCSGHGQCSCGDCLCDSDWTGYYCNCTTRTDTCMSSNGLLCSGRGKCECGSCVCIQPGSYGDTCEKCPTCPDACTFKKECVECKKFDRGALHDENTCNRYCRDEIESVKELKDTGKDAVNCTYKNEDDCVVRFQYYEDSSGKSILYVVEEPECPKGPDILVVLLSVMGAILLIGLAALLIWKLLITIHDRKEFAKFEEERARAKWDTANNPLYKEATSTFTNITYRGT
UniProt P08514, 32-887 limits assumed: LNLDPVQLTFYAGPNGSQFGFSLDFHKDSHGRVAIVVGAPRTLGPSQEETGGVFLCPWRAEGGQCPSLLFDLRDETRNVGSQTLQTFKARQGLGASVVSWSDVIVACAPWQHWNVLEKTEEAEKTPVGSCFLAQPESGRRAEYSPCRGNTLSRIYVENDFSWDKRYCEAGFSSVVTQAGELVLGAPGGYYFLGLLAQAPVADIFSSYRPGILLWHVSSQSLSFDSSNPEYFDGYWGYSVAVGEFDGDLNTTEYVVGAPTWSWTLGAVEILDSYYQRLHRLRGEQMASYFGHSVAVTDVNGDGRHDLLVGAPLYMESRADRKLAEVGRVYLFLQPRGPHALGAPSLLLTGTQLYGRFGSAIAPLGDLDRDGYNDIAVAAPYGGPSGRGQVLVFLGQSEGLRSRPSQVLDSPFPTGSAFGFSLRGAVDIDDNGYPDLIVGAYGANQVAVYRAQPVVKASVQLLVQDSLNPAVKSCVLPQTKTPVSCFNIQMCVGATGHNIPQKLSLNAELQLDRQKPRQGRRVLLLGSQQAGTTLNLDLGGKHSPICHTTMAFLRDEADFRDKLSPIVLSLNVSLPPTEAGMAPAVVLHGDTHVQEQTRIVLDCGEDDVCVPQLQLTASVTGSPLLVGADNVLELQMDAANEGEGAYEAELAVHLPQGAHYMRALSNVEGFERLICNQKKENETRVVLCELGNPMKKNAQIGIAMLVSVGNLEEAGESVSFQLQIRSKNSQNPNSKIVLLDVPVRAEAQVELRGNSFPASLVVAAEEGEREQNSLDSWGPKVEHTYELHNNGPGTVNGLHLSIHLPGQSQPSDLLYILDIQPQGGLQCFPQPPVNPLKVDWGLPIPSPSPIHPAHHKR
UniProt P08514, 891-1039 partner limits assumed: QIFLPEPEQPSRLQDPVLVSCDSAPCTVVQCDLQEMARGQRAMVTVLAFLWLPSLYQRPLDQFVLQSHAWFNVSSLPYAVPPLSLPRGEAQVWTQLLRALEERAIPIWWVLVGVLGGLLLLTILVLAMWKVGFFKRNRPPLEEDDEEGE

| SPECIFICITY αIIbβ3 / αvβ3 | Structure (SMILES) |
| --- | --- |
| 87 | O=C(N[C@@H](CNC(=O)c1ccc(CN(Cc2nc3ccccc3[nH]2)C(=O)C(F)(F)F)cc1)C(=O)O)OCc1ccccc1 |
| 19 | CN(C)C(=O)N(Cc1ccc(C(=O)NC[C@H](NC(=O)OCc2ccccc2)C(=O)O)cc1)Cc1nc2ccccc2[nH]1 |
| 70 | CCCC(=O)N(Cc1ccc(C(=O)NC[C@H](NC(=O)OCc2ccccc2)C(=O)O)cc1)Cc1nc2ccccc2[nH]1 |

Source: patent EP1135374B9, “BENZIMIDAZOLE COMPOUNDS THAT ARE VITRONECTIN RECEPTOR ANTAGONISTS” (SCHERING CORPORATION, priority 1998, dated 2000)
